Test system: Wistar rats
Test: Catalepsy (CAT) measurement on inclined grid in rats
Settings: idazoxan 1.5 mg/kg s.c.

## Cc1cc2c(s1)Nc1ccccc1N=C2N1CCN(C)CC1 [olanzapine]
0.5 hrs after olanzapine 2.5 mg/kg i.p., catalepsy score 0-5, 8 rats per group
  CAT rating ± semi-interquartile range: 1 ± 2.0
Olanzapine 2.5 mg/kg i.p., alone or in combination
  catalepsy compared to vehicle treated controls: did not produce any significant catalepsy

From US20040127489A1, “Novel antipsychotic combination therapies and compositions useful therein” (priority 2002, published 2004)
